# Water solubility values, as collected for the OPERA models

Data: OPERA 2.9 data sets, kmansouri/OPERA on GitHub.

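OPERA's authors assembled the values from existing databases and did not measure them anew. The files give a single number for a compound and property, which may rest on several reports. Method, purity and exact conditions of the single measurements are not given. A value may pool stereoisomers or salt forms, and the file does not say which form was measured. Some upstream entries may be estimates or bounds without being marked so.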

Water solubility is log10 of mol/L, nominally at 25 °C; higher is more soluble.
Cells with "n/a" have no entry in this list.

* CNC(=O)Nc1ccccc1 [N-Methyl-N'-phenylurea]: log solubility -1.26 (log10 mol/L)
* Clc1ccc(Oc2cc(Cl)c(Cl)c(Cl)c2Cl)cc1 [2,3,4,4',5-pentachlorodiphenyl ether]: log solubility -8.06 (log10 mol/L)
* CN1C(=O)NCc2c1ncn2C [3,7-Dimethyl-1,3,6,7-tetrahydro-2H-purin-2-one]: log solubility -1.34 (log10 mol/L)
* Cc1c(Cl)cccc1Nc1ccccc1C(=O)O [Tolfenamic acid]: log solubility -5.53 (log10 mol/L)
* CCCCCCCCCCCCCCCCCCNC(=O)C(C)O (centres undefined): log solubility -4.06 (log10 mol/L)
* Cc1ccccc1NC(=O)c1cc2ccccc2c(N=Nc2ccc(Cl)cc2[N+](=O)[O-])c1O: log solubility -7.563 (log10 mol/L)
* C=CCN(CCC#N)c1cc(NC(C)=O)c(N=Nc2c(Br)cc([N+](=O)[O-])cc2[N+](=O)[O-])cc1OC: log solubility -8.9 (log10 mol/L)
* O=c1[nH]cnc2ccccc12: log solubility -0.924 (log10 mol/L)
* COc1cc(C(=O)NS(=O)(=O)c2ccccc2C)ccc1Cc1cn(C)c2ccc(NC(=O)OC3CCCC3)cc12 [Zafirlukast]: log solubility -5.777 (log10 mol/L)
* CC(=O)CC(=O)C(=O)O [Acetylpyruvic acid]: log solubility 0.291 (log10 mol/L)
* O[Si](O)(c1ccccc1)c1ccccc1 [Diphenylsilanediol]: log solubility -2.733 (log10 mol/L)
* CC(=O)O[C@@H]1C[C@@H]2CC[C@@]1(C)C2(C)C [(-)Bornyl acetate]: log solubility -3.496 (log10 mol/L)
* FC(F)(F)c1ccccc1 [Benzotrifluoride]: log solubility -2.916 (log10 mol/L)
* CCCc1nc(N)nc(N)n1 [Butyroguanamine]: log solubility -0.916 (log10 mol/L)
* CCCSCCC [Propyl sulfide]: log solubility -2.58 (log10 mol/L)
* CC1(C(=O)O)CC(C(=O)O)C(C)(C)C1 (centres undefined) [1,4,4-Trimethylcyclopentane-1,3-dicarboxylic acid]: log solubility -1.639 (log10 mol/L)
* O=c1cnc2c(=O)[nH]c(=O)[nH]c2[nH]1 [Violapterin]: log solubility -3.335 (log10 mol/L)
* CC(=O)Nc1ccc(S(=O)(=O)Nc2nc(C)cs2)cc1 [N-acetyl-sulfanilic acid-(4-methyl-thiazol-2-ylamide)]: log solubility -2.151 (log10 mol/L)
* O=c1c2ccccc2nc2n1CC[C@@H]2O [3-Hydroxy-2,3-dihydropyrrolo[2,1-b]quinazolin-9(1H)-one]: log solubility -2.09 (log10 mol/L)
* Clc1c(Cl)c(Cl)c(Oc2ccccc2)c(Cl)c1Cl [2,3,4,5,6-pentachlorodiphenyl ether]: log solubility -7.94 (log10 mol/L)
* NC(=O)c1ccc([N+](=O)[O-])cc1 [4-Nitrobenzamide]: log solubility -1.5 (log10 mol/L)
* CC1(C)C(=O)NC(=O)N1CN1C(=O)NC(=O)C1(C)C [1,1'-methylenebis(5,5-dimethylimidazolidine-2,4-dione)]: log solubility -1.73 (log10 mol/L)
* COc1c(O)cc(Cl)c(Cl)c1Cl [3,4,5-Trichloro-2-methoxyphenol]: log solubility -2.87 (log10 mol/L)
* Cc1c(NC(N)=O)c(=O)n(-c2ccccc2)n1C: log solubility -1.522 (log10 mol/L)
* c1ccc(-c2ccc(C(c3ccccc3)n3ccnc3)cc2)cc1 (centres undefined) [Bifonazole]: log solubility -5.951 (log10 mol/L)
* Clc1cc(Cl)cc(Oc2ccc(Cl)cc2Cl)c1: log solubility -7.14 (log10 mol/L)
* COc1ccccc1C [Benzene, 1-methoxy-2-methyl-]: log solubility -2.689 (log10 mol/L)
* CC(N)CCC(=O)O (racemic): log solubility 0.539 (log10 mol/L)
* Cc1cc(N(CCO)CCO)ccc1N=Nc1ccccc1 [2,2'-((3-Methyl-4-(phenylazo)phenyl)imino)bisethanol]: log solubility -4.126 (log10 mol/L)
* NS(=O)(=O)c1cc2c(s1)S(=O)(=O)CC(O)C2 (centres undefined): log solubility -1.539 (log10 mol/L)
* COc1ccc([C@@H]2OC[C@H]3[C@@H]2CO[C@@H]3c2ccc(O[C@@H]3O[C@H](CO)[C@@H](O)[C@H](O)[C@H]3O)c(OC)c2)cc1OC [Phillyrin]: log solubility -3.126 (log10 mol/L)
* OCCN(CCO)c1nc(N2CCCCC2)c2nc(N(CCO)CCO)nc(N3CCCCC3)c2n1 [Dipyridamole]: log solubility -2.738 (log10 mol/L)
* CCC(CC)(C(=O)NC)C(=O)NC [2,2-Diethyl-N1,N3-dimethylpropanediamide]: log solubility 0.031 (log10 mol/L)
* O=C(O)Cc1ccccc1O [2-Hydroxyphenylacetic acid]: log solubility -0.539 (log10 mol/L)
* CC(C)C1CCCCC1 [Cyclohexane, (1-methylethyl)-]: log solubility -5.312 (log10 mol/L)
* CC1(OC(=O)c2ccccc2C(=O)OC2(C)CCCCC2)CCCCC1 [Bis(1-methylcyclohexyl) benzene-1,2-dicarboxylate]: log solubility -6.838 (log10 mol/L)
* CC1(C(=O)O)CCC2(C)CCC3(C)C(=CC(=O)C4C5(C)CCC(OC6OC(C(=O)O)C(O)C(O)C6OC6OC(C(=O)[O-])C(O)C(O)C6O)C(C)(C)C5CCC43C)C2C1.[NH4+] (centres undefined) [Ammonium glycyrrhizate]: log solubility -2.225 (log10 mol/L)
* CC(=O)Nc1ccc(S(=O)(=O)Cl)cc1 [4-(Acetylamino)benzenesulfonyl chloride]: log solubility -1.785 (log10 mol/L)
* CCOC(=O)[C@@H](N)Cc1cc(I)c(Oc2cc(I)c(O)c(I)c2)c(I)c1 [Ethyl O-(4-hydroxy-3,5-diiodophenyl)-3,5-diiodo-L-tyrosinate]: log solubility -4.6 (log10 mol/L)
* CCCCCCCCc1c(CC)nc2ncnn2c1N [Ametoctradin]: log solubility -6.26 (log10 mol/L)
* CCCC(N)=O [Butanamide]: log solubility 0.272 (log10 mol/L)
* N[C@@H](CCS)C(=O)O [Homocysteine]: log solubility 0.039 (log10 mol/L)
* CCCCCCCCCCCCCCCC(=O)NCC(=O)O [N-Palmitoylglycine]: log solubility -5.568 (log10 mol/L)

7 of these entries, quoted again:

SMILES	name	log solubility (log10 mol/L)
CC(=O)O[C@@H]1C[C@@H]2CC[C@@]1(C)C2(C)C	(-)Bornyl acetate	-3.496
CCCSCCC	Propyl sulfide	-2.58
Cc1c(Cl)cccc1Nc1ccccc1C(=O)O	Tolfenamic acid	-5.53
COc1ccc([C@@H]2OC[C@H]3[C@@H]2CO[C@@H]3c2ccc(O[C@@H]3O[C@H](CO)[C@@H](O)[C@H](O)[C@H]3O)c(OC)c2)cc1OC	Phillyrin	-3.126
Clc1ccc(Oc2cc(Cl)c(Cl)c(Cl)c2Cl)cc1	2,3,4,4',5-pentachlorodiphenyl ether	-8.06
NS(=O)(=O)c1cc2c(s1)S(=O)(=O)CC(O)C2 (centres undefined)	n/a	-1.539
Cc1c(NC(N)=O)c(=O)n(-c2ccccc2)n1C	n/a	-1.522